Assay results: patent US11576873B2, “Compositions for the treatment of drug-resistant tumors and methods of use thereof” (THE CURATORS OF THE UNIVERSITY OF MISSOURI, priority 2017, dated 2023)

How the values were obtained:
H820 and HCC827 = assay: 72 h cell viability analysis of Cetuximab antibody; format: cell-based; settings: H820 versus HCC827
Procedure: FIG. 41A-C. FIG. 41A, 41B, and 42C show 72 h cell viability analysis of: (A) DMSO and Transit-X2 in H820, (B) Cetuximab antibody in H820 and HCC827, and (C) siRNA in H820.
Drug treatment and pathway inhibition were combined and the effect of drug resensitization in cells was determined. The required concentration of DMSO and transfection agent needed for drug and siRNA treatments was first optimized by testing their toxicity in H820 cells (FIG. 41). Additionally, cells were checked for sensitivity to anti-EGFR antibody (Cetuximab). […] Next it was established that siRNA alone had no effect on multiple cell lines (FIG. 41).

[1] = Physicochemical properties of gelatin NP constructs (TEM, DLS size, zeta potential)
FN14 = assay: Protein analysis of mice tumor tissues, FN14; format: in vivo; settings: A549 xenograft, with erlotinib, compared to controls
Procedure: (§1) To confirm the downregulation of AXL-FN14 in tumors, protein analysis was performed on the tumor tissues.

[2] = system: luciferase expressing A549 xenograft tumors; assay: Tumor size by fluorescence imaging in mice with A549 xenografts; format: in vivo; settings: injected intraperitoneally, along with erlotinib, third treatment day, compared to nanoparticle devoid of siRNA
Procedure: FIG. 49A-D. FIG. 49A, 49B, 49C, and 49D show (A,C) Total fluorescence measured from tumors and (B,D) mean fluorescence measured from tumors. IT/IP/IV+ER represent dual-siRNA construct treatments. Results were averaged from 5 mice. *p≤0.05, and the normalized percentage differences between day 17 and day 20 values were analyzed using one-way anova.
In order to translate the in vitro findings to an in vivo model, mice were treated with luciferase expressing A549 xenograft tumors with our siRNA-conjugated constructs. Both AXL and FN14 were synergistically targeted using a single construct along with erlotinib and monitored tumor volume reduction by fluorescence imaging (FIG. 48).

AXL = assay: Protein analysis of mice tumor tissues, AXL; format: in vivo; settings: A549 xenograft, with erlotinib, compared to controls
Procedure: as §1

## Cetuximab: FDA approved anti-EGFR antibody
H820 and HCC827
  sensitivity to anti-EGFR antibody: more resistant

## GAb: gelatin nanoparticles conjugated with Cetuximab (anti-EGFR antibody)
[1]
  Zeta (mV): −9 mV

## GAbsi(AXL,FN14): Cetuximab conjugated gelatin nanoparticles reacted with equal amounts of AXL and FN14 siRNA
FN14
  FN14 expression in tumor tissues: downregulated
[2]
  reduction of tumor size: 50%
AXL
  AXL expression in tumor tissues: downregulated

## GAbsiAXL: Cetuximab conjugated gelatin nanoparticles with thiol modified AXL siRNA linked via SMCC
[1]
  Zeta (mV): −28 mV
